From patent US4351948A, “Imidazole hydrazone derivatives” (priority 1980, dated 1982)

Assay: in vivo
Details: mouse, iv

Compound: Clc1ccc(C(Cn2ccnc2)OCc2ccsc2Cl)c(Cl)c1 (stereo not shown) [Tioconazole, 1-[2-[(2-Chloro-3-thienyl)methoxy]-2-(2,4-dichlorophenyl)ethyl]-1H-imidazole]
- LD50 at 168 h: 188 mg/kg
